For 1 compound, Km, Ratio and Vmax results are on record in ChEMBL document CHEMBL1124121, “Occurrence and pharmacological significance of metabolic ortho-hydroxylation of 5- and 8-hydroxy-2-(di-n-propylamino)tetralin” (1988).

The species named for assay [1] is Rattus norvegicus. Nature of the assay: Apparent kinetic constant(Km) for the aromatic hydroxylation on crude rat liver microsomes. The format is functional, organism-based. The gist of the method:
(§1)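 Crude rat liver microsomes (0.5 mg protein/mL) were incubated with substrate at 37 °C for 3 min in 0.1 M Tris, pH 7.4, with 0.1 mM NADPH and MgCl₂. The reaction was stopped with perchloric acid. Catechol products in the supernatant were measured by HPLC with electrochemical detection. Apparent Km and Vmax came from Lineweaver-Burk plots of 3–4 substrate concentrations, each run in triplicate.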
(In general: Microsomes from liver hold many membrane-bound enzymes, among them those of drug oxidation.)

The nature of assay [2]: Ratio of Km to that Vmax in crude rat liver microsomes was determined. The note with it: Microsome.
The species named for assay [3] is Rattus norvegicus. Nature of the assay: Apparent kinetic constant(Vmax) for the aromatic hydroxylation on crude rat liver microsomes at 1 mg of protein. The format is functional. The gist of the method: as §1

The Km is the concentration of substrate that gives half-maximal velocity. As a reminder, the Vmax is the rate approached at saturating substrate. Turning to `CCCN(CCC)C1CCc2cccc(O)c2C1` (stereo not drawn) [8-OH-DPAT], the Km in assay [1] came to 80 µM. In assay [2], the Ratio came out at 9380. The Vmax in assay [3] stood at 750 pM/min.
